From patent publication US12514865B2, “Biomaterial-based antigen free vaccine and the use thereof” (President and Fellows of Harvard College, priority 2019, dated 2026) come the findings set out here.

The data set is described as follows: In vitro encapsulation and release of biomolecules from the cryogel vaccine. The data set is classed as physicochemical. The method, then: To determine the incorporation efficiency and release kinetics of Cpg-odn, GM-CSF and antigen from cryogel vaccines, gels were incubated in lml of sterile PBS at 37° C. with shaking. Media was replaced periodically. Micro-BCA (Pierce Biotechnology) was used to quantify total protein content. GM-CSF and Cpg-odn released in the supernatant were detected by ELISA (Invitrogen) and OliGreen assay (Invitrogen), respectively. The amount of antigen was determined by subtracting total protein content from the amount of GM-CSF quantified by ELISA.

For RMFPNAPYL [WT-1126-134], the “amount released over a period of 10 days after the burst release” value (100 μg loaded) is recorded as “Approximately 4 μg”. Further, the “burst release over the first two days” value (antigen, in vitro, from cryogel) was determined as 3.3%. This sequence also came in with an encapsulation efficiency (in MA-PEG/MA-alginate vaccine cryogel) of 75%.
